Assay: Phase 1 drug-interaction study, sirolimus with isavuconazole: pharmacokinetics
Type: in vivo, human (healthy subjects)
Settings: both, human, whole blood, po, 2 mg

Tmax: 2.5 h
SMILES: CO[C@H]1C[C@@H]2CC[C@@H](C)[C@@](O)(O2)C(=O)C(=O)N2CCCC[C@H]2C(=O)O[C@H]([C@H](C)C[C@@H]2CC[C@@H](O)[C@H](OC)C2)CC(=O)[C@H](C)/C=C(\C)[C@@H](O)[C@@H](OC)C(=O)[C@H](C)C[C@H](C)/C=C/C=C/C=C/1C [Sirolimus, sirolimus]

— paper PMC5298005 (Clinical Pharmacology in Drug Development, 2016)
